# Measurements from US4479951A, “1.4;3.6-Dianhydrohexitol nitrates substituted by purine bases, processes for their preparation and pharmaceutical compositions” (Dr. Willmar Schwabe GmbH & Co., priority 1980, dated 1984).
# System: isolated guinea pig hearts
# Experiment: coronary flowthrough-increasing effectiveness, isolated hearts according to Langendorff
# Settings: 25 μg/ml
smiles,measurement,value
O=[N+]([O-])O[C@H]1CO[C@H]2[C@@H]1OC[C@H]2O[N+](=O)[O-],"Flowthrough, percentage change in comparison with the initial values",+91.54%
same,"Frequency, percentage change in comparison with the initial values",+2.00%
same,"Inotropism, percentage change in comparison with the initial values",-8.11%
